We go through two compounds from patent US4521538A (Medosan Industrie Biochimiche Riunite S.p.A., priority 1982, dated 1985).

Series [1] in a line: in vivo. The settings on record: mouse, mice.
The nature of series [2]: in vivo. The following applies: rat, rats.
The format of series [3] is in vivo, male Wistar rats. The following applies: four days. The procedure:
Male Wistar rats weighing 180 g were randomized into groups of 10. Three doses of each compound were administered. One group received the vehicle alone (10 ml/kg b.w.). Each dose was given orally for four days consecutively and the rats were sacrificed on the fifth day for necropsy. The ulcerogenic effect was evaluated by the following scale:
(1) each haemorrhagic point at least 1 mm in diameter was scored as 1 lesion,
(2) haemorrhagic points less than 1 mm in diameter were scored in the following manner:
(c) 20 to 29=three lesions
(2) gastric mucosal irritation without haemorrhage: 1
(3) haemorrhagic points less than 1 mm in diameter: 2
(4) haemorrhagic points between 1 and 3 mm in diameter: 3
(5) haemorrhagic points larger than 3 mm in diameter: 4
By means of this scale it was possible to obtain the gastric damage index: [formula]

Structures can show the parent of a compound that is named as a salt. Where two headings read alike, the source gives them in different places.

One may read the LD50 as the dose expected to kill half of the subjects tested. Read a low LD50 as greater toxicity. For `Cc1ccc(C(=O)c2ccc(CC(=O)O)n2C)cc1` [Tolmetin], the LD50 stood at 550 mg/kg in series [1] (ip); 802 mg/kg in series [1] (po, per os); 612 mg/kg in series [2] (ip); 827 mg/kg in series [2] (po, per os).

Consider `Cc1ccc(C(=O)c2ccc(CC(=O)O)n2C)cc1` [Tolmetin Na.2H2 O, 1-mehtyl-5-p-toluoyl-2-acetic acid sodium salt dihydrate], for which the figures for the “% incidence / 10” value in series [3] (50 mg/kg orally), in series [3] (100 mg/kg orally) and in series [3] (200 mg/kg orally) were 7, 10 and 10, respectively.
